Biological target: P70S6K (T412E mutant, Millipore) (Homo sapiens, UniProt P23443, T412E)
Test: p70S6K enzyme assay
Conditions: read-out: IC50 (p70S6K); class symbol; 3 nM P70S6K, 24 μM ATP
Method: P70S6K inhibitor compounds are diluted and plated in 96 well plates. A reaction mixture including the following components is then added to the compound plate to initiate the enzyme reaction; P70S6K (3 nM, T412E mutant, Millipore) is mixed with 24 μM ATP in an assay buffer containing 100 mM Hepes (pH 7.5), 5 mM MgCl2, 1 mM DTT, 0.015% Brij and 1 μM of the substrate peptide FITC-AHA-AKRRRLSSLRA-OH (derived from the S6 ribosomal protein sequence, FITC=fluorescein isothiocyanate, AHA=6-aminohexanoic acid). The reaction is incubated for 90 min at 25° C., before the addition of 10 mM EDTA to stop the reaction. The proportion of substrate and product (phosphorylated) peptide is analysed on a Caliper Life Sciences Lab Chip 3000, using a pressure of −1.4 psi, and upstream and downstream voltages of −3000 and −700 respectively. Product peaks are resolved before substrate peaks on the resulting chromatograms.

Sequences of proteins named here, by UniProt entry; tags and fusion partners are left off.
UniProt P23443, whole entry T412E: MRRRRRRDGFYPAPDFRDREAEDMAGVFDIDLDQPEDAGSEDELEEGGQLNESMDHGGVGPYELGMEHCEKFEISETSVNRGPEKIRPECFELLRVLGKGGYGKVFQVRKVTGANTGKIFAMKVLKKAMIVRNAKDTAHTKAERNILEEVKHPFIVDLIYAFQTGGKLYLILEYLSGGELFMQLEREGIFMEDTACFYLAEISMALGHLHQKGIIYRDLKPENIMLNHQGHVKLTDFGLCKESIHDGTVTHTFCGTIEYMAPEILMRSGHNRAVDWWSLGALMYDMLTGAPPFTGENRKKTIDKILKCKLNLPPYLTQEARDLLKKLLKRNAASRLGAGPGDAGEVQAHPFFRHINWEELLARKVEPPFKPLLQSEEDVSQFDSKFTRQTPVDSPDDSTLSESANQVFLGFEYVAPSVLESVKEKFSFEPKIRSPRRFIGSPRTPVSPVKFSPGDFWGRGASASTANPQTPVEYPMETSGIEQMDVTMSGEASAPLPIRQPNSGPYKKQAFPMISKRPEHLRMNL

IC50 [nM] | Structure (SMILES)
< 100 | O=C(NCc1ccc(C(F)(F)F)c(Cl)c1)c1ccsc1Nc1ccnc2[nH]ccc12
< 100 | O=C(NCCNCc1cccc(Cl)c1)c1sccc1Nc1ccnc2[nH]ccc12

Reference: patent US9023847B2, “Azaheterocyclic compounds” (Merck Patent GmbH, priority 2009, dated 2015)
